# Cyclic peptide permeability, from CycPeptMPDB

Collected by the curators of CycPeptMPDB (Li et al. 2023) from Townsend et al. 2020, doi:10.26434/chemrxiv.13335941.v1.

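Conditions beyond the assay type are not listed; see the original paper. Other peptides of the study may be missing here. Peptides that the database sets to -10, its floor, are left out.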

PAMPA is the parallel artificial membrane permeability assay, which has no cells and reads passive diffusion.
Permeability is in 10^-6 cm/s, converted from the database's log10 values; higher is more permeable.

structure (SMILES),PAMPA (10^-6 cm/s)
CC(C)C[C@@H]1NC(=O)[C@H](C)N(C)C(=O)[C@@H]2CCCN2C(=O)[C@H](Cc2ccccc2)NC(=O)CN(Cc2ccccc2)C(=O)[C@@H]2CCCN2C(=O)[C@@H](CC(C)C)N(C)C1=O,2.2
CC(C)C[C@@H]1NC(=O)[C@H](CC(C)C)N(C)C(=O)[C@@H](C)NC(=O)[C@H](Cc2ccccc2)NC(=O)CN(Cc2ccccc2)C(=O)[C@@H]2CCCN2C1=O,3.2
CC(C)C[C@@H]1NC(=O)[C@H]2CCCN2C(=O)[C@@H](CC(C)C)NC(=O)[C@H](CC(C)C)N(C)C(=O)[C@H](C)N(C)C(=O)[C@H](Cc2ccccc2)NC1=O,1.3
CC(C)C[C@@H]1NC(=O)[C@H](C)N(C)C(=O)[C@H]2CCCN2C(=O)[C@H](Cc2ccccc2)NC(=O)[C@H](CC(C)C)N(C)C(=O)[C@@H]2CCCN2C(=O)CN(Cc2ccccc2)C1=O,11
CC(C)C[C@@H]1NC(=O)[C@@H](C)NC(=O)[C@H](Cc2ccccc2)NC(=O)[C@H](CC(C)C)NC(=O)[C@@H]2CCCN2C(=O)[C@H](CC(C)C)NC1=O,0.095
CC(C)C[C@@H]1NC(=O)[C@@H](CC(C)C)NC(=O)C[C@H](Cc2ccccc2)NC(=O)[C@H](Cc2ccccc2)NC(=O)CN(Cc2ccccc2)C(=O)[C@@H]2CCCN2C1=O,1.5
CC(C)C[C@@H]1NC(=O)[C@H](C)NC(=O)[C@H](Cc2ccccc2)NC(=O)[C@@H](CC(C)C)N(C)C(=O)[C@@H]2CCCN2C(=O)[C@@H](CC(C)C)N(C)C1=O,1.9
CC(C)C[C@H]1NC(=O)C[C@H](Cc2ccccc2)NC(=O)[C@H](Cc2ccccc2)NC(=O)[C@@H](CC(C)C)NC(=O)[C@@H]2CCCN2C(=O)C[C@H](Cc2ccccc2)NC1=O,1.9
CC(C)C[C@@H]1C(=O)N2CCC[C@H]2C(=O)N(C)[C@@H](CC(C)C)C(=O)N[C@@H](Cc2ccccc2)C(=O)N2CCC[C@@H]2C(=O)N[C@H](C)C(=O)N[C@H](CC(C)C)C(=O)N1C,0.76
CC(C)C[C@H]1NC(=O)C[C@H](Cc2ccccc2)NC(=O)[C@H]2CCCN2C(=O)[C@H](Cc2ccccc2)NC(=O)CN(Cc2ccccc2)C(=O)[C@@H]2CCCN2C(=O)[C@H](CC(C)C)N(C)C1=O,2.2
CC(C)C[C@@H]1NC(=O)[C@H](CC(C)C)N(C)C(=O)[C@H](C)N(C)C(=O)[C@H]2CCCN2C(=O)[C@H](Cc2ccccc2)NC(=O)CN(Cc2ccccc2)C(=O)[C@@H]2CCCN2C1=O,6.5
CC(C)C[C@@H]1C(=O)N[C@@H](Cc2ccccc2)C(=O)N2CCC[C@@H]2C(=O)N(C)[C@H](C)C(=O)N(Cc2ccccc2)CC(=O)N[C@@H](Cc2ccccc2)CC(=O)N2CCC[C@H]2C(=O)N1C,2.3
CC(C)C[C@@H]1C(=O)N[C@H](CC(C)C)C(=O)N2CCC[C@H]2C(=O)N(Cc2ccccc2)CC(=O)N[C@@H](Cc2ccccc2)C(=O)N[C@@H](C)C(=O)N1C,6
CC(C)C[C@H]1NC(=O)[C@H](CC(C)C)N(C)C(=O)[C@H](C)NC(=O)[C@@H]2CCCN2C(=O)[C@H](Cc2ccccc2)NC(=O)[C@H](CC(C)C)N(C)C(=O)[C@H]2CCCN2C1=O,6.6
CC(C)C[C@@H]1NC(=O)[C@H](C)NC(=O)[C@H]2CCCN2C(=O)[C@H](Cc2ccccc2)NC(=O)CN(Cc2ccccc2)C(=O)[C@H]2CCCN2C(=O)[C@@H](CC(C)C)NC1=O,0.13
CC(C)C[C@H]1NC(=O)[C@H](C)N(C)C(=O)[C@H](Cc2ccccc2)NC(=O)[C@H](CC(C)C)N(C)C(=O)[C@@H]2CCCN2C(=O)[C@@H](CC(C)C)NC1=O,1.9
CC(C)C[C@@H]1NC(=O)[C@@H](CC(C)C)N(C)C(=O)[C@H](C)NC(=O)[C@H]2CCCN2C(=O)[C@H](Cc2ccccc2)NC(=O)[C@@H](CC(C)C)N(C)C(=O)[C@@H]2CCCN2C1=O,4
CC(C)C[C@H]1NC(=O)[C@H](CC(C)C)N(C)C(=O)[C@@H](C)NC(=O)[C@H]2CCCN2C(=O)[C@H](Cc2ccccc2)NC(=O)CN(Cc2ccccc2)C(=O)[C@@H]2CCCN2C1=O,0.95
CC(C)C[C@@H]1NC(=O)[C@@H](CC(C)C)N(C)C(=O)[C@H](C)NC(=O)[C@H]2CCCN2C(=O)[C@H](Cc2ccccc2)NC(=O)[C@H](CC(C)C)N(C)C(=O)[C@@H]2CCCN2C1=O,4.4

Excerpt, the final 2 entries:

{"smiles": "CC(C)C[C@H]1NC(=O)[C@H](CC(C)C)N(C)C(=O)[C@@H](C)NC(=O)[C@H]2CCCN2C(=O)[C@H](Cc2ccccc2)NC(=O)CN(Cc2ccccc2)C(=O)[C@@H]2CCCN2C1=O", "PAMPA (10^-6 cm/s)": "0.95"}
{"smiles": "CC(C)C[C@@H]1NC(=O)[C@@H](CC(C)C)N(C)C(=O)[C@H](C)NC(=O)[C@H]2CCCN2C(=O)[C@H](Cc2ccccc2)NC(=O)[C@H](CC(C)C)N(C)C(=O)[C@@H]2CCCN2C1=O", "PAMPA (10^-6 cm/s)": "4.4"}